Assay results taken from US20050090551A1, “Therapeutic use of methionine for the treatment or prevention of mucositis” (Board of Trustees of Southern Illinois University, priority 2003, published 2005).

Test system: human salivary gland cell line
Conditions: 1.0, 0.5, 0.2 and 0.1 mg/ml D-methionine six hours before 10 Gy

SMILES: CSCC[C@@H](N)C(=O)O [D-methionine]
- cell growth: underwent log phase growth
- cell viability: 85-95%
